Measurements published in patent US6569897B1, “Alkenyldiarylmethane non-nucleoside HIV-1 reverse transcriptase inhibitors” (priority 1998, dated 2003).

Experiments:
[1] = system: latently HIV-1 infected U1 cells; assay: Virus production from latently HIV-1 infected U1 cells induced with TNF-α; assay type: cell-based
HIV-1 proviral DNA = assay: PCR-based analysis of proviral DNA formation; assay type: cell-based

SMILES: COC(=O)CCCC=C(c1cc(Cl)c(OC)c(C(=O)OC)c1)c1cc(Cl)c(OC)c(C(=O)OC)c1 [Compound 22, Methyl 3′,3″-Dichloro-4′,4″-dimethoxy-5,5″-bis(methoxycarbonyl)-6,6-diphenylhexenoate]
- virus production from U1 cells [1]: no effect on virus production
- formation of proviral DNA (HIV-1 proviral DNA): prevented formation of proviral DNA
